Measurements: US9586925B2 (priority 2013, dated 2017)

The chains behind the UniProt entries cited, without tags or fusion partners. Residues count along the entry.
UniProt P22303, 32-614 limits assumed: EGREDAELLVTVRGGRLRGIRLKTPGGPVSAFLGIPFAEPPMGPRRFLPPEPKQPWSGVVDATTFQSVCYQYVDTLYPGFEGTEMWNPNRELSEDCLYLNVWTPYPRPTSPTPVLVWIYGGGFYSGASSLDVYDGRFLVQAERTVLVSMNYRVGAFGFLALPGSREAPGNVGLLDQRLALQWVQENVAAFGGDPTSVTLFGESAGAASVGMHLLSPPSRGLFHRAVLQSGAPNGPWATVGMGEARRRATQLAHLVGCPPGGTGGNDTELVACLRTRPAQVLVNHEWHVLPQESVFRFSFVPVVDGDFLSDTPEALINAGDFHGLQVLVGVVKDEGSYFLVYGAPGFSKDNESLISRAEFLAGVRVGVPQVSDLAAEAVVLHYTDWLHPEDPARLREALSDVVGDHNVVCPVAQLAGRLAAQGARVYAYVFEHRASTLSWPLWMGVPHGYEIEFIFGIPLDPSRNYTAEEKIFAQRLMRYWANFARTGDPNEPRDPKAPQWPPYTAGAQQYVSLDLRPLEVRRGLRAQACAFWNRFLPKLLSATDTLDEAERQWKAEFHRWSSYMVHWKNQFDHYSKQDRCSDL

Biological target: Human recombinant acetylcholinesterase (Homo sapiens (Human), UniProt P22303)
Experiment: biochemical

CCN(C)C(=O)Oc1cc(C(C)N(C)C)cc2oc(=O)c3ccccc3c12 (racemic) [FAR-01-2CA, (±)-3-(1-(dimethylamino)ethyl)-6-oxo-6H-benzo[c]chromen-1-yl ethyl(methyl)carbamate]
pIC50: 4.40

pIC50: −log10 of the molar value.
